Values of other authors as cited in PMC10313070, “Design, in silico and pharmacological evaluation of a peptide inhibitor of BACE-1” (Frontiers in Pharmacology, 2023).

System: Aβ levels
Set-up: method as in Wu et al., 2016
Settings: ref Wu et al., 2016; cited from earlier work

Substance: pyrazinecarboxamide
- Aβ levels in the rat brain: reduces Aβ levels
